Measurements as given in US9670214B2, “Small molecule myristate inhibitors of Bcr-abl and methods of use” (DANA-FARBER CANCER INSTITUTE, INC., priority 2007, dated 2017).

Legend:
[1] = target: Bcr-abl (Ba/F3.p210 cells) (Homo sapiens, UniProt P00519); assay: Proliferation assay (MTT), wild type Bcr-abl expressing Ba/F3 cells; assay type: cell-based, murine; conditions: 48 h, drug concentrations 0.005-10 μM
Source text: (§1) Wild type Bcr-abl expressing 32D (32D.p210) and Ba/F3 (Ba/F3.p210) cells, and mutant Bcr-abl expressing cell lines Ba/F3.p210^G250E, Ba/F3.p210^E255V, Ba/F3.p210^T315I, Ba/F3.p210^F317L and Ba/F3.p210^M351T, as well as Ba/F3 cells transformed with Flt-3-ITD kinase. Additional assays included Ba/F3 cells expressing the fusion protein kinases TEL-PDGFRβ, TEL-JAK1, NPM-ALK, TEL-cKit, Tel-Bmx, Tel-FGR3, Tel-Lck and Ba/F3.TPR-met cells. All the above cell lines were maintained in RPMI-1640 medium with L-Glutamine, 10% FBS and 1 mg/ml geneticin (Gibco).
(§2) Cells (0.3-0.6×10^6/ml) were plated in duplicate or triplicate in 96-well plates containing increasing drug concentrations (0.005-10 μM). After incubation at 37° C. in 5% CO2 for 48 h, the effect of the compounds on cell viability was determined by MTT (Promega) colorimetric dye reduction method. Inhibition of cell proliferation was calculated as a percentage of growth of DMSO treated cells, and IC50 values were determined with Microsoft Excel XLfit3.

[2] = target: Bcr-abl T315I (Ba/F3.p210^T315I cells) (Homo sapiens, UniProt P00519, T315I, cells depend on it); assay: Proliferation assay (MTT), T315I mutant Bcr-abl expressing Ba/F3 cells; assay type: cell-based, murine; conditions: 48 h, drug concentrations 0.005-10 μM
Source text: as §1, §2

[3] = tested on: Ba/F3 cells (IL-3 dependent murine pro-B cell line); assay: Proliferation assay (MTT), parental Ba/F3 cells; assay type: cell-based; conditions: Mus musculus, 48 h, drug concentrations 0.005-10 μM, read-out: BaF3
Protocol: Interleukin-3 (IL-3) dependent murine pro-B cell line, Ba/F3, and murine myeloid precursor cell line, 32D, were maintained in RPMI-1640 medium supplemented with L-Glutamine, 10% FBS and 10 U/ml recombinant murine IL-3 (Roche). Mo7e human megakarioblastic cell line was grown in RPMI-1640 medium supplemented with L-Glutamine, 20% FBS and 5 ng/ml recombinant human granulocyte macrophage cell stimulating factor (GM-CSF) (R&D Systems) or 200 ng/ml stem cell factor (SCF) (Biosource).
as §2

Row | Structure (SMILES) | IC50 [1] | IC50 [2] | IC50 [3]
1 | Cn1cnc2ncnc(Nc3ccc(OC(F)(F)F)cc3)c21 | 7.69 µM | – | –
2 | OC[C@H]1OC(n2cnc3c(Nc4ccc(OC(F)(F)F)cc4)ncnc32)[C@H](O)[C@@H]1O (stereo partly drawn) | 2.14 µM | – | –
3 | FC(F)(F)Oc1ccc(Nc2ncnc3c2ncn3CCN2CCOCC2)cc1 | 2.45 µM | – | –
4 | OC[C@H]1OC(n2ccc3c(Nc4ccc(OC(F)(F)F)cc4)ncnc32)[C@H](O)[C@@H]1O (stereo partly drawn) | 5.5 µM | > 10 µM | –
5 | OCCn1ccc2c(Nc3ccc(OC(F)(F)F)cc3)ncnc21 | 0.45 µM | 2.79 µM | –
6 | COc1ccc(Cn2ccc3c(Nc4ccc(OC(F)(F)F)cc4)ncnc32)cc1 | 9.68 µM | > 10 µM | –
7 | COCCCNC(=O)CCn1ccc2c(Nc3ccc(OC(F)(F)F)cc3)ncnc21 | 3.26 µM | – | –
8 | Cn1c(C(=O)N2CCC(Br)CC2)cc2c(Nc3ccc(OC(F)(F)F)cc3)ncnc21 | 1.98 µM | – | –
9 | CCOC(=O)C1CCCN(C(=O)c2cc3c(Nc4ccc(OC(F)(F)F)cc4)ncnc3n2C)C1 (stereo not drawn) | 6.34 µM | > 10 µM | –
10 | Cn1c(C(=O)N2CCCC(CO)C2)cc2c(Nc3ccc(OC(F)(F)F)cc3)ncnc21 (stereo not drawn) | 1.73 µM | > 10 µM | –
11 | Cn1c(C(=O)N2CCC3(CC2)C(=O)NCN3c2ccccc2)cc2c(Nc3ccc(OC(F)(F)F)cc3)ncnc21 | 6.18 µM | > 10 µM | –
12 | COC[C@H]1CCCN1C(=O)c1cc2c(Nc3ccc(OC(F)(F)F)cc3)ncnc2n1C | 2.18 µM | > 10 µM | –
13 | CCNC(=O)c1cc2c(Nc3ccc(OC(F)(F)F)cc3)ncnc2n1C | 0.45 µM | 6.93 µM | –
14 | OCc1cc2c(Nc3ccc(OC(F)(F)F)cc3)ncnc2s1 | – | 3.7 µM | –
15 | O=C(c1cc2c(Nc3ccc(OC(F)(F)F)cc3)ncnc2s1)N1CCNCC1 | – | 2.3 µM | 4.07 µM
16 | O=C(c1cc2c(Nc3ccc(OC(F)(F)F)cc3)ncnc2s1)N1CCN(N2CCCC2)CC1 | – | 3.96 µM | –
17 | CCOC(=O)Cc1cnc(NC(=O)c2ccc3c(Nc4ccc(OC(F)(F)F)cc4)ncnc3c2)s1 | 3.03 µM | 4.15 µM | –
18 | CN(C)C1CCN(C(=O)c2ccc3c(Nc4ccc(OC(F)(F)F)cc4)ncnc3c2)C1 (stereo not drawn) | 2.76 µM | > 10 µM | –
19 | CN1CCCN(C(=O)c2ccc3c(Nc4ccc(OC(F)(F)F)cc4)ncnc3c2)CC1 | 5.78 µM | > 10 µM | –

Row | Structure (SMILES) | IC50 [1] | IC50 [2] | IC50 [3]
20 | O=C(c1ccc2c(Nc3ccc(OC(F)(F)F)cc3)ncnc2c1)N1CCC(O)CC1 | 1.95 µM | – | –
21 | O=C(c1ccc2c(Nc3ccc(OC(F)(F)F)cc3)ncnc2c1)N1CCC(Br)CC1 | 3.87 µM | – | –
22 | NC(=O)C1CCN(C(=O)c2ccc3c(Nc4ccc(OC(F)(F)F)cc4)ncnc3c2)CC1 | 6.21 µM | > 10 µM | –
23 | O=C(c1ccc2c(Nc3ccc(OC(F)(F)F)cc3)ncnc2c1)N1CCCC(CO)C1 (stereo not drawn) | 1.67 µM | > 10 µM | –
24 | Cc1c(Nc2ccc(OC(F)(F)F)cc2)ncnc1-c1ccc(S(N)(=O)=O)cc1 | – | 6.77 µM | –
25 | CC(C)S(=O)(=O)c1ccc(-c2cc(Nc3ccc(OC(F)(F)F)cc3)ncn2)cc1 | – | 4.8 µM | –
26 | CCN(CC)S(=O)(=O)c1ccc(-c2ncnc(Nc3ccc(OC(F)(F)F)cc3)c2C)cc1 | – | 9.19 µM | –
27 | CCS(=O)(=O)Nc1ccc(-c2cc(Nc3ccc(OC(F)(F)F)cc3)ncn2)cc1 | – | 2.18 µM | –
28 | CCCCS(=O)(=O)Nc1ccc(-c2cc(Nc3ccc(OC(F)(F)F)cc3)ncn2)cc1 | – | 2.89 µM | –
29 | CC(C)S(=O)(=O)Nc1ccc(-c2cc(Nc3ccc(OC(F)(F)F)cc3)ncn2)cc1 | – | 2.25 µM | –
30 | COCCCNC(=O)c1ccc(-c2ncnc(Nc3ccc(OC(F)(F)F)cc3)c2C)cc1 | – | 1.85 µM | –
31 | FC(F)(F)Oc1ccc(Nc2cc(Nc3cc(C4CC4)[nH]n3)ncn2)cc1 | – | 3.27 µM | –
32 | FC(F)(F)Oc1ccc(Nc2cc(Nc3nccn3-c3cccc(C(F)(F)F)c3)ncn2)cc1 | – | 1.48 µM | –
33 | Cc1c(Nc2ccc(OC(F)(F)F)cc2)ncnc1-c1cnn(CC(C)C)c1 | – | 1.55 µM | –
34 | Cc1c(Nc2ccc(OC(F)(F)F)cc2)ncnc1-c1cnn(C)c1 | – | 3 µM | –
35 | Cc1c(Nc2ccc(OC(F)(F)F)cc2)ncnc1-c1cnn(Cc2ccccc2)c1 | – | 8.72 µM | –
36 | FC(F)(F)Oc1ccc(Nc2cc(-c3cnn(Cc4cccnc4)c3)ncn2)cc1 | – | 9 µM | –
37 | FC(F)(F)Oc1ccc(Nc2cc(-c3cc(NCCN4CCOCC4)ncn3)ncn2)cc1 [drawing 444] | – | > 10 µM | –
